MITF act = MITF TRPM1 promoter activation in melanoma cells; SK-MEL-5 TRPM1-promoter luciferase, 24 h; % of positive control, neutral wells = 0; activation, % at 12.5 µM; 0.75% of 300,000 active;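 active = mean activation of at least 80% with every replicate also reaching 80%; inconclusive = mean reaches 80% but some replicate falls short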;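 note: 0% = neutral control wells and 100% = parthenolide positive control wells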
esBAF inh = blocks esBAF chromatin remodeling in mouse ES cells; Bmi1-luciferase knock-in reporter, 24 h; 100% = twice the neutral-well signal; reporter increase, % at 12.5 µM; 2% of 350,000 active; AID 602393; in the data active = activation above about 40%; inconclusive = no clear call, values can overlap the other calls;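 note: 0% = median of the plate's neutral control wells and 100% = double that signal; a rise in the Bmi1 reporter signal indicates esBAF inhibition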
Wnt bcat act = activates Wnt/beta-catenin signaling in a reporter cell assay; 1.2% of 300,000 active; AID 743398; activator, plate reader; activation, % at 9.35 µM; in the data active = activation above about 30%, passing the limit was not always enough; inconclusive = no clear call, values can overlap the other calls;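 note: 0% = neutral control wells and 100% = positive control wells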
UUG fidelity = modulators of yeast start codon fidelity, primary screen, whole organism, S. cerevisiae, single point, plate reader; S. cerevisiae UUG-firefly luciferase reporter, luminescence/redox ratio; activity score, % at 18.7 µM; 0.13% of 350,000 active; AID 602363, 2012;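 active = replicate mean at a twofold rise or more, about +100% in these data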;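 also: firefly luciferase made from a UUG start codon reports start codon fidelity; reporter light over untreated wells divided by growth signal over untreated wells; some hits fall short of that in this replicate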
miR122 inh = inhibitors of miR-122 in Huh7 cells | 0.3% of 340,000 active | activation (reporter increase), % at 12.5 µM | Huh7 miR-122 Renilla luciferase sensor, 48 h; neutral wells = 0, positive control = 100;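 active = mean replicate activation score at least 90 and every replicate individually at or above 90; inconclusive = only one of the two criteria met; inactive = neither criterion met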;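 note: higher luciferase means less miR-122 activity so hits act as miR-122 inhibitors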
PglD DTNB = blocks C. jejuni PglD acetyltransferase activity; purified PglD enzyme, DTNB colorimetric CoA detection; inhibition, % at 12.5 µM; 0.098% of 360,000 active; in the data active = inhibition above about 16%, passing the limit was not always enough; inconclusive = no clear call, values can overlap the other calls
Numbers without * were called inactive; ? = inconclusive; · = no result; [ ] = another dose, or the depositor's remark. Compounds with a hit are over-represented: about 2.8% of the library has one in this group of screens.

SMILES | MITF act | esBAF inh | Wnt bcat act | UUG fidelity | miR122 inh | PglD DTNB
O=c1sc2ccccc2n1CCOc1ccccc1 | 65 | 45* | 15 | -13 | 5 | 5
Cc1ccc(OCCn2c(=O)n(C)c3ccccc32)cc1 | 39 | 85* | 13 | · | 6 | ·
C[C@@H](NC(=O)C[C@@H]1C=C[C@H](NC(=O)CN2CCOCC2)[C@@H](CO)O1)c1ccccc1 | · | -1 | · | 0 | · | 0
O=C(N[C@@H]1CC[C@@H](CC(=O)N2CCCCC2)O[C@@H]1CO)c1ccc2c(c1)OCO2 | · | 0 | · | -4 | · | 0
Cc1c(C(=O)N2c3ccccc3CC2C)oc2ccccc12 (centres undefined) | 57 | 85* | 51* | -8 | 35 | -2
C[C@H]1CCCCO[C@@H](CN(C)CC2CC2)[C@@H](C)CN([C@@H](C)CO)C(=O)c2cc(NC(=O)Nc3ccc(F)cc3)ccc2O1 | · | 0 | · | 5 | -9[16.7 µM] | 1
C[C@H]1CN([C@@H](C)CO)C(=O)c2cc(-c3ccccc3)cnc2O[C@@H]1CN(C)C(=O)Cc1ccccc1 | · | -8 | · | -4 | 6[16.7 µM] | -2
COCC(=O)N1C[C@@H](C)[C@@H](OC)CN(C)C(=O)c2cc(NC(=O)c3ccccc3)ccc2OC[C@@H]1C | · | -7 | · | 1 | · | -1
COc1cc(/C=C/C(=O)OC2CC3CCC2(C)C3(C)C)ccc1O (centres undefined) | 10 | 47* | -1 | -14 | 1 | 4
COc1cc(/C=C/C(=O)OCC(=O)N2CCC(C)CC2)ccc1O | 4 | -4 | 0 | -3 | · | -5
CCOC(=O)CNc1ccc(C(=O)OCC)cc1[N+](=O)[O-] | 0 | · | 4 | · | · | ·
CCCNc1ccc(C(=O)OCC)cc1[N+](=O)[O-] | 77 | 52* | 8 | -5 | 6 | -6
COc1ccc(S(=O)(=O)N(C)C[C@H]2OCc3cn(nn3)CCCC(=O)N([C@H](C)CO)C[C@H]2C)cc1 | · | -1 | · | · | -4[16.7 µM] | ·
O=C(NCC[C@H]1CC[C@@H](NS(=O)(=O)c2ccccc2)[C@@H](CO)O1)c1ccccc1F | · | 6 | · | 9 | · | 2
Nc1ccccc1N=Cc1ccc(-c2cccc(Cl)c2)o1 | 46 | 98* | 14 | -17 | 4 | -2
CC(NC(=O)c1ccc(N(C)C)cc1)C(c1cccs1)N1CCN(C)CC1 (centres undefined) | 67 | 43* | · | -14 | 7 | 4
Oc1ccc(Br)cc1C=Nc1ccc(Cl)cc1 | 4 | · | 0 | · | · | ·
COc1cc(O)sc1C=Nc1ccc(Cl)cc1 | 6 | 55* | 15 | 3 | 6 | -4
COc1ccc(C(=O)NCCOc2ccccc2Cl)c(OC)c1OC | 89* | 68* | ? | 6 | 0 | 4
Cc1ccc2nc3sc(C(=O)N4CCOCC4)c(N)c3cc2c1 | · | -77 | 9 | -68 | -19 | 4
Cc1ccc2cc3c(N)c(C(=O)N4CCOCC4)sc3nc2c1 | 11 | · | 59* | · | 7 | ·
Cc1ccc2nc(-c3ccncc3)cc(C(=O)N3CCOCC3)c2c1 | -4 | 3 | · | -9 | -2 | -3
Cc1ccc(-c2cc(C(=O)N3CCOCC3)c3cc(C)ccc3n2)cc1 | 28 | 13 | 31* | 0 | 12 | -2
COCCNC(=O)C[C@H]1CC[C@@H]2[C@H](COC[C@H](O)CN2Cc2cccc(-c3ccncc3)c2)O1 | · | 2 | · | · | 0[16.7 µM] | -6
C[C@H](CO)N1C[C@H](C)[C@@H](CN(C)C(=O)Cc2ccccc2)Oc2cc(C#CC3(O)CCCC3)ccc2S1(=O)=O | · | 7 | · | -7 | 22[16.7 µM] | 1

No new results follow: entries from further up.
SMILES | MITF act | esBAF inh | Wnt bcat act | UUG fidelity | miR122 inh | PglD DTNB
COc1cc(/C=C/C(=O)OCC(=O)N2CCC(C)CC2)ccc1O | 4 | -4 | 0 | -3 | · | -5
CCOC(=O)CNc1ccc(C(=O)OCC)cc1[N+](=O)[O-] | 0 | · | 4 | · | · | ·

Marked active in Wnt bcat act, among the entries above:
SMILES | MITF act | esBAF inh | Wnt bcat act | UUG fidelity | miR122 inh | PglD DTNB
Cc1c(C(=O)N2c3ccccc3CC2C)oc2ccccc12 (centres undefined) | 57 | 85* | 51* | -8 | 35 | -2
Cc1ccc2cc3c(N)c(C(=O)N4CCOCC4)sc3nc2c1 | 11 | · | 59* | · | 7 | ·
Cc1ccc(-c2cc(C(=O)N3CCOCC3)c3cc(C)ccc3n2)cc1 | 28 | 13 | 31* | 0 | 12 | -2

More records:
SMILES | MITF act | esBAF inh | Wnt bcat act | UUG fidelity | miR122 inh | PglD DTNB
COCCNC(=O)C[C@H]1CC[C@@H]2[C@H](COc3ccc(NC(C)=O)cc3C(=O)N2C)O1 | · | -5 | · | 1 | 8[16.7 µM] | 1
CN1CCN(Cn2cc(/C=C/C(=O)c3ccccc3)c3ccccc32)CC1 | ? | 62* | · | -20 | 6 | -6
c1ccc(CCNc2ncnc3c2cnn3-c2ccccc2)cc1 | 67 | 72* | · | -9 | -1 | -3
c1ccc(CNc2ncnc3c2cnn3-c2ccccc2)cc1 | 16 | ? | · | -8 | -4 | 0
Clc1ccc(Nc2ncnc3c2cnn3-c2ccccc2)cc1 | · | 85* | 13 | -16 | 3 | -2
Cn1ncc2c(Nc3ccc4ccccc4c3)ncnc21 | 69 | 53* | 21 | -10 | -6 | -3
Clc1ccc(-n2ncc3c(NCc4cccnc4)ncnc32)cc1Cl | 10 | 65* | 21 | -2 | -8 | 5
CCCNC(=O)Nc1ccc2c(c1)C(=O)N(C)C[C@@H](OC)[C@H](C)CN(Cc1cncnc1)[C@H](C)CO2 | · | 0 | · | -6 | -5[16.7 µM] | -2
C[C@H](CO)N1C[C@H](C)[C@H](CN(C)S(=O)(=O)c2cn(C)cn2)Oc2ccc(NS(=O)(=O)c3cn(C)cn3)cc2CC1=O | · | 2 | · | -3 | -1[16.7 µM] | -1
CC(C)NC(=O)Nc1ccc2c(c1)C(=O)N([C@H](C)CO)C[C@@H](C)[C@@H](CN(C)CC1CCCCC1)O2 | · | -3 | · | -2 | 6[16.7 µM] | 1
Fc1ccc(CNc2ncnc3c2cnn3-c2ccccc2)cc1 | 32 | 49* | -1 | -19 | 25 | 1
c1ccc(-n2ncc3c(NCCN4CCOCC4)ncnc32)cc1 | 38 | 47* | 47* | -11 | 1 | -2
O=C(/C=C/c1ccco1)Nc1scc(-c2ccccc2)c1C(=O)O | 27 | · | 42* | 13 | 0 | 8
Cc1ccc(-c2csc(N/N=C/c3ccco3)n2)cc1 | 75 | ? | 16 | -32 | 2 | 7
O=C(/C=C/c1ccccc1)Nc1scc(-c2ccccc2)c1C(=O)O | 40 | · | 15 | · | · | ·
Brc1ccc(-c2csc(N/N=C/c3ccco3)n2)cc1 | 56 | ? | 38* | -20 | 1 | -1
C(=N\Nc1nc(-c2ccccc2)cs1)/c1ccco1 | 97* | · | · | -10 | -5 | 2
C(=N\Nc1nc(-c2ccccc2)cs1)/c1cccs1 | 51 | · | 56* | -22 | 10 | -3
O=C(NCc1nc2ccccc2[nH]1)C1=C[C@H](c2ccc(Br)cc2)C[C@H](OCCCCO)O1 | · | · | · | -15 | · | 2
CNC[C@H]1OCCCC[C@@H](C)Oc2ccc(NS(C)(=O)=O)cc2C(=O)N([C@@H](C)CO)C[C@@H]1C | · | 1 | · | -13 | 7[16.7 µM] | 0
O=C(/C=C/c1ccco1)Nc1nc(-c2ccccn2)cs1 | 6 | · | -2 | · | · | ·
O=C(/C=C/c1ccco1)Nc1nc(-c2ccccc2)cs1 | 54 | · | 37* | -14 | -2 | -6
COc1ccc(NC(=O)COC(=O)C23CC4CC(CC(O)(C4)C2)C3)cc1Cl | 86* | 10 | 39* | -9 | -16 | 1
O=C(COC(=O)C12CC3CC(CC(O)(C3)C1)C2)Nc1ccc(Cl)cc1F | 93* | 16 | 23 | -10 | -3 | 3
O=S(=O)(N[C@H]1CC[C@H](CCn2cc(-c3cccnc3)nn2)O[C@@H]1CO)c1ccc(F)cc1 | · | 2 | · | -12 | · | 1
CCc1ccc2oc(C(=O)Nc3nonc3CC)c(C)c2c1 | 90* | ? | 27 | -11 | 1 | -3

Bioassay records from PubChem.
